What was measured:
[1] = target: Luciferase (Mock, Promega control plasmid), in vitro translated, biotin-labelled [luciferase: P08659]; assay: cell-based or functional assay
[2] = target: Spleen Tyrosine kinase (SYK, EST clone IMAGE 3870426), in vitro translated, biotin-labelled (UniProt P43405); assay: cell-based or functional assay

**Q.** Which results are given for “SRC (known kinase, 0.1 mU SRC/µl) (from UniProt P12931 1-536) (enzyme)”?
**A.** ECL signal with Sulfo-TAG anti-phosphotyrosine after SAP treatment and SRC reaction (+SRC, +SAP) [1]: 1150 ECL signal; ECL signal with Sulfo-TAG anti-phosphotyrosine after SAP treatment and SRC reaction (+SRC, +SAP) [2]: 1650 ECL signal
